Literature values, collected in patent US20150136150A1, “DURABLE SKIN MARKING COMPOSITIONS” (OP-MARKS, INC., priority 2011, published 2015).

Test system: rat
Settings: oral dose administered to rat; cited from earlier work

SMILES: CCCOCC(C)O (stereo not shown) [PGPE (Arcosolv)]
- TOX (toxicity, LD50): 2504 mg/kg
